Among the data in ChEMBL document CHEMBL4138119, “Anti-diabetic activity of fused PPARγ-SIRT1 ligands with limited body-weight gain by mimicking calorie restriction and decreasing SGK1 expression” (Eur J Med Chem, 2017) are EC50 values, retold here.

This test addresses T1, Peroxisome proliferator-activated receptor alpha (Homo sapiens, UniProt Q07869).
T1 sequence (Q07869 whole entry): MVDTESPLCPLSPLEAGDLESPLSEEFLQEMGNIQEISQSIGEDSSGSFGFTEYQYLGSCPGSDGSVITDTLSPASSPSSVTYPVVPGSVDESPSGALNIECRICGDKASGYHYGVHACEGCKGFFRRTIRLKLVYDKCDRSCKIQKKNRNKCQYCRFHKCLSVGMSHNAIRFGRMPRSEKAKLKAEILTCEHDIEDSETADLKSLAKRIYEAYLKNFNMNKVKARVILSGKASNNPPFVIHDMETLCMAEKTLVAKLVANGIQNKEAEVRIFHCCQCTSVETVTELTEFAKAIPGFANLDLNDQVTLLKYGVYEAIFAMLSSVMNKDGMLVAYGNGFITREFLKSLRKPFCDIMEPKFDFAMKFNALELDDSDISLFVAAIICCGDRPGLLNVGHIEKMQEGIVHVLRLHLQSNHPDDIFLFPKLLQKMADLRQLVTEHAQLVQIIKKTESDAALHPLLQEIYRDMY
The test can be described thus: Transactivation of human Gal4-fused PPARalpha LBD expressed in African green monkey COS7 cells after 24 hrs by luciferase reporter gene assay. It is filed as cell-based.

For `Cc1oc(-c2ccccc2)nc1CCOc1ccc(C[C@H](Nc2ccccc2C(=O)c2ccccc2)C(=O)O)cc1` [FARGLITAZAR], the half-maximal effective concentration (EC50) – broadly, the concentration at which the effect is half-maximal – was 122 nM.
